The text below walks through data of patent US20250387426A1 (priority 2024, published 2025).

For this assay, the system named is migraine headache.

Regarding magnesium, for the setting “Example 2 patient, history”, the “benefit as migraine prophylactic agent” value was “without benefit”. Moreover, the “benefit as migraine prophylaxis” value (Example 5 patient, history) is reported as “partially helpful”.
For the substance magnesium oxide, where the note is “Example 1 patient, riboflavin 200 mg bid, magnesium oxide 500 mg tid and coenzyme Q10 100 mg bid together, after 4-6 weeks”, the “effect on headache frequency” value is given as “did not affect the frequency of their headaches”.
